Experimental data published in US5852049A, “Aromatic ethers derived from indoles which are useful as medicaments” (Pierre Fabre Medicament, priority 1994, dated 1998).

The chains behind the UniProt entries cited, without tags or fusion partners.
UniProt P08908, whole entry: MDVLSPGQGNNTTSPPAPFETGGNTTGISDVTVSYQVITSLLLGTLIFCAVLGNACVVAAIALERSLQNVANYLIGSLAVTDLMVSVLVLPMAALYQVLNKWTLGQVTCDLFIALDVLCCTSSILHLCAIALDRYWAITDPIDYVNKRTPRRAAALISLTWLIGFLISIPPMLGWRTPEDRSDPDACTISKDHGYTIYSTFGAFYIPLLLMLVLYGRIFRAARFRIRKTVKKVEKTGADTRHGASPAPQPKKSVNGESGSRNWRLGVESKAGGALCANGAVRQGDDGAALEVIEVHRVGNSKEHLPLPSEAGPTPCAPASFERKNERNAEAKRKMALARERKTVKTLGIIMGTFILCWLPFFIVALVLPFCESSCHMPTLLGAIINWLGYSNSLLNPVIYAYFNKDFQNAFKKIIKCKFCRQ

Target: T1, human 5HT1A (Homo sapiens, UniProt P08908)
T1 construct: expressed in transfected cells; host or cells: HeLa HA7
Experiment: binding to human 5HT1A receptor (HeLa HA7 cell line)
Details: HeLa HA7, [3H]-8OH-DPAT 1 nM
Description: The HeLa HA7 cell line expressing the human 5HT1A receptor was obtained from Tulco (Duke Univ., Durham, N.C., USA) and cultured according to the method of Fargin et al., J. Biol. Chem. 264, 14848 (1989).
Palmier (Neuropharmacology, 33, 67, 1994).

SMILES: CNS(=O)(=O)Cc1ccc2[nH]cc(CCN(C)C)c2c1 [Sumatriptan, reference compound]
- Ki: 440 nM
